Experimental findings from patent publication US9321756B2, “Azole compounds as PIM inhibitors” (priority 2011, dated 2016) are described below.

Protein sequences, listed by entry. Tags and fused reporters are not part of them.
UniProt P11309, whole entry: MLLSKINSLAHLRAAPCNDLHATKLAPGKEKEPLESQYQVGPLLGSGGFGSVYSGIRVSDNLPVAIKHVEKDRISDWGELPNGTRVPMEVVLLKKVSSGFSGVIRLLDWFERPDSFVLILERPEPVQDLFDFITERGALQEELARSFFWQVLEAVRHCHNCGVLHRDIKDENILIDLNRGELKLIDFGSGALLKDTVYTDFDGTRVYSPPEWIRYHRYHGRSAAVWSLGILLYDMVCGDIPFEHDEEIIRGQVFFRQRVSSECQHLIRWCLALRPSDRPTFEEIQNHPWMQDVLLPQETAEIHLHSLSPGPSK
UniProt Q9P1W9, whole entry: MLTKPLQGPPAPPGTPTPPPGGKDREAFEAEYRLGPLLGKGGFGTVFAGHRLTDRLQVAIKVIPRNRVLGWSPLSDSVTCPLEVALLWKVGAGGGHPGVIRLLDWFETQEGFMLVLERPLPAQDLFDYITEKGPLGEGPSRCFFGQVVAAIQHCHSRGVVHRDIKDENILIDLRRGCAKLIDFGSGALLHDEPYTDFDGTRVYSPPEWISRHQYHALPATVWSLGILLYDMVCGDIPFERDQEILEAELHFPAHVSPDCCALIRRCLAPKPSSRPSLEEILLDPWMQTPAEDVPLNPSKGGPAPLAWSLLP

Test [1] concerns the target Pim-1 stably transfected U2OS human osteogenic sarcoma line (Homo sapiens, UniProt P11309). As to the kind of experiment: Pim cell assay U2OS (phospho-BAD normalized against total BAD), Pim-1 transfected. Format: cell-based. The settings on record: read-out: U2OS Pim1_Cell_IC50, U2OS cells.
The target of test [2] is Pim-2 stably transfected U2OS human osteogenic sarcoma line (Homo sapiens, UniProt Q9P1W9). As to the kind of experiment: Pim cell assay U2OS (phospho-BAD normalized against total BAD), Pim-2 transfected. In kind it is cell-based. The following applies: read-out: U2OS Pim2_Cell_IC50, U2OS cells.
In test [3] the target is full length recombinant Pim-3 (Homo sapiens (Human), UniProt Q86V86). Kind of test: Pim enzyme assay (HTRF, phosphorylation of biotinylated-BAD (S112) peptide), Pim-3. In kind it is biochemical. The following applies: read-out: Pim3 IC50; Pim-3 enzyme assay. (In general: In TR-FRET formats the signal depends on donor and acceptor labels being close together.)
For test [4], the target named is full length recombinant Pim-2 (Homo sapiens (Human), UniProt Q9P1W9). Kind of test: Pim enzyme assay (HTRF, phosphorylation of biotinylated-BAD (S112) peptide), Pim-2. Format: biochemical. The following applies: read-out: Pim2_IC50; Pim-2 enzyme assay.
Test [5] addresses full length recombinant Pim-1 (Homo sapiens (Human), UniProt P11309). Kind of test: Pim enzyme assay (HTRF, phosphorylation of biotinylated-BAD (S112) peptide), Pim-1. In kind it is biochemical. The following applies: read-out: Pim_1_IC50; Pim-1 enzyme assay.

As to `Nc1nnc(-c2ccc3[nH]cc(-c4cccc(N5CCC[C@H](N)C5)n4)c3c2)s1`, the IC50 in test [1] is 3.09 µM; in test [2] it was 19.6 µM; in test [3], 0.307 nM; in test [4], 3.7 nM; in test [5], 1.79 nM.
